The test has as its system mesenchymal stem cells. Kind of test: Alkaline phosphatase (ALP) activity of cells on BMP-2-conjugated nanofiber scaffolds. The following applies: day 3, day 7 and day 14 of culture; compared with soluble BMP-2 (500 ng/ml). In kind it is cell-based. Here is the method:
Muscle myoblast cells. […] The scaffolds were prepared as described in Example 1. An amount of the formed nanofibrous mesh was immersed in 20 ml of 50 mg/ml PAA aqueous solution for 30 minutes in a quartz round dish (Quartz Scientific, Inc., Fairport Harbor, Ohio). Mild agitation was applied to remove the air bubbles trapped in the nanofibers. Two minutes of UV irradiation was then applied to the mixture using a UVM400 ultraviolet lamp (Harland Medical, Eden Prairie, Minn., distance from the light source was 8 inches). The nanofiber mesh was flipped over and UV illumination applied again. The coated nanofiber meshes were rinsed with distilled water three times and washed overnight. The functionalized nanofibers (which now contained carboxy reactive groups) were then lyophilized. […]
To assess the bioactivity of immobilized BMP-2, alkaline phosphatase (ALP) activity on mesenchymal stem cells seeded on the conjugated scaffolds and on control scaffolds with soluble BMP-2 (500 ng/ml) was determined for day 3, day 7 and day 14 of cell culture. […]
Cells were lysed with 2 ml of extraction reagent (Sigma-Aldrich), and 50 μl of the cell extract and ALP standard solutions were incubated with 100 μl of p-nitrophenyl phosphate solution at room temperature for one hour. The p-nitrophenol production was measured at 405 nm. ALP expression was calculated based on a standard curve.

B1: conjugated BMP-2: BMP-2 immobilized on carboxy-functionalized photoreactive PCL nanofibers through EDC/NHS coupling (conjugate, UniProt P12643 283-396, looked up)
Bone morphogenetic protein 2: QAKHKQRKRLKSSCKRHPLYVDFSDVGWNDWIVAPPGYHAFYCHGECPFPLADHLNSTNHAIVQTLVNSVNSKIPKACCVPTELSAISMLYLDENEKVVLKNYQDMVVEGCGCR
modifications: immobilized on photoreactive PCL nanofibers
For B1, the “bioactivity of immobilized BMP-2 (ALP activity)” value was “retained activity at similar levels to soluble protein”.
